From ChEMBL document CHEMBL1137608, “Design of a potent reactivator of tabun-inhibited acetylcholinesterase--synthesis and evaluation of (E)-1-(4-carbamoylpyridinium)-4-(4-hydroxyiminomethylpyridinium)-but-2-ene dibromide (K203)” (2007)

Test system: Rattus norvegicus
Test: Toxicity in intramuscular dosed rat after 24 hrs
Conditions: in vivo, im

SMILES	LD50 [mg/kg]
O/N=C/c1cc[n+](CCC[n+]2ccc(/C=N/O)cc2)cc1.[Br-].[Br-]	150
O/N=C/c1cc[n+](COC[n+]2ccc(/C=N/O)cc2)cc1.[Cl-].[Cl-]	211
